Data taken from patent US8623906B2, “Carboxy isatin hydrazones and their esters as Shp2 inhibitors” (H. Lee Moffitt Cancer Center and Research Institute, Inc., priority 2009, dated 2014).

Experiments:
[1] = system: GST-Shp2 PTP domain protein; format: biochemical
Protocol: All reactions were monitored by thin layer chromatography (TLC) or ^1H NMR. Some products, which could not be purified by simply washing, were purified by Flashmaster chromatography. […] After the purity and structure were confirmed, samples were tested for IC50 by DiFMUP assay, seen in Table 1, appended.
Curve fitting and IC50 were obtained using the GraphPad Prism program (GraphPad Software).

[2] = molecular target: non-fusion Shp2 PTP protein
[3] = system: His-tagged Shp2 (amino acids 1-525)

SMILES: O=C1Nc2ccc(S(=O)(=O)NCc3ccc(F)cc3)cc2/C1=N/Nc1cccc(C(=O)O)c1 [SPI-112, (Z)-3-(2-(5-(N-(4-fluorobenzyl)sulfamoyl)-2-oxoindolin-3-ylidene)hydrazinyl)benzoic acid]
- IC50 [1]: 1 µM
- Ki [2]: 0.8 µM
- association rate Ka [3]: 22400 M⁻¹ s⁻¹
- dissociation rate Kd [3]: 0.029 s⁻¹
- Kd ([3]; read-out: kinetic constant (KD)): 1.3 µM
